# Values of other authors as cited in US20210260074A1, “SEIZURE CONTROL COMPOSITIONS AND METHODS OF USING SAME” (published 2021).
# Tested on: status epilepticus (SE)
# Conditions: nerve agent exposure
smiles,measurement,value
CN1[C@@H]2CC[C@H]1C[C@@H](OC(=O)C(CO)c1ccccc1)C2 (stereo partly shown),time window after exposure in which seizures may be treated,≤ 5 min
